The record followed here is ChEMBL document CHEMBL1128962, “Serotoninergic 5-HT3 and 5-HT4 receptor activities of dihydrobenzofuran carboxylic acid derivatives” (Bioorg Med Chem Lett, 1996).

Protein sequences, listed by entry. Tags and fused reporters are not part of them. Lines headed by an entry give the natural chain unless they say otherwise; changes in a name come on top.
UniProt Q62758: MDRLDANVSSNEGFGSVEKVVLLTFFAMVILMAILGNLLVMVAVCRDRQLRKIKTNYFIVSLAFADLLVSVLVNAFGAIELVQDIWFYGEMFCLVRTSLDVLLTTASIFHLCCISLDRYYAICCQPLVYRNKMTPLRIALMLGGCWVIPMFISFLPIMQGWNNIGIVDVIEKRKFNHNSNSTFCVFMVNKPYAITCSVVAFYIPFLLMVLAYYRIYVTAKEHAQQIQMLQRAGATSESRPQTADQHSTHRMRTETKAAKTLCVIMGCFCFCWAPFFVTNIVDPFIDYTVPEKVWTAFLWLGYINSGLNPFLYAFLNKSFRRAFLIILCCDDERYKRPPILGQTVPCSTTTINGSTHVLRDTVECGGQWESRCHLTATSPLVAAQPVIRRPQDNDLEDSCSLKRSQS
UniProt P35563, whole entry: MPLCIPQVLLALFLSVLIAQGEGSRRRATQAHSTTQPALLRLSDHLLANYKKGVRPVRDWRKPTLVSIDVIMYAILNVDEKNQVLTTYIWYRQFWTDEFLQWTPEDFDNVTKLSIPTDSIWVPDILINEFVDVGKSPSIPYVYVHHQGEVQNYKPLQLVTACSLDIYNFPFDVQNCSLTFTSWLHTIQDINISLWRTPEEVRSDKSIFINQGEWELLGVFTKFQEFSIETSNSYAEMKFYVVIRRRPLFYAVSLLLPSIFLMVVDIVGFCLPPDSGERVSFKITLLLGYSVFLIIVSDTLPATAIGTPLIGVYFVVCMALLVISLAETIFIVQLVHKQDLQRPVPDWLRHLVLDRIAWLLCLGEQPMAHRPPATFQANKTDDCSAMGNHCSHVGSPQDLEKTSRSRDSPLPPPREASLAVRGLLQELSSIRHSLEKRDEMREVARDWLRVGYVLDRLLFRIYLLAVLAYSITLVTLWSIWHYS
UniProt Q9JJ16: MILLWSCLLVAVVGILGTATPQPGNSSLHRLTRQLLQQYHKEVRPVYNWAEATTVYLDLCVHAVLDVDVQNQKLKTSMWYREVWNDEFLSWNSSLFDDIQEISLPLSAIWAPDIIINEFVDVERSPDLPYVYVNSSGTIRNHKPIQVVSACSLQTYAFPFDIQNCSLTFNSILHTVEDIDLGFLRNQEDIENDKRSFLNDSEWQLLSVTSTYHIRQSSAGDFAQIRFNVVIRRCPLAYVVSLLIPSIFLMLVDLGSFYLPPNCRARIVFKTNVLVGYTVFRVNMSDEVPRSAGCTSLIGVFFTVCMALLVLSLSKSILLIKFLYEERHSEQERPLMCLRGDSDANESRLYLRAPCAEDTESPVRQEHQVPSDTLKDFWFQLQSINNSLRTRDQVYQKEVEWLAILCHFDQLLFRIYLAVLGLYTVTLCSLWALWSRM

By EC50 is commonly meant the concentration giving half of the maximal effect. Read a high EC50 as weaker potency. Usually Ki stands for a measure of affinity in units of concentration, obtained from inhibition or displacement.

For assay [1], the target named is T1, 5-hydroxytryptamine receptor 4 (Rattus norvegicus, UniProt Q62758). Kind of assay: In vitro relaxation of carbachol pre-contracted rat oesophageal TMM. The format is functional.
Assay [2] deals with T1, 5-hydroxytryptamine receptor 4. Kind of assay: Binding affinity at 5-hydroxytryptamine 4 receptor in rat striatum by [3H]GR-113808 displacement. The format is tissue-based.
Assay [3] concerns the target Serotonin 3 (5-HT3) receptor (Rattus norvegicus, UniProt P35563+Q9JJ16). Kind of assay: Binding affinity at 5-hydroxytryptamine 3 receptor in rat entorhinal cortex by [3H]BRL-43694 displacement. The format is tissue-based.

`CCN(CC)CCNC(=O)c1cc(Cl)c(N)cc1OC` [METOCLOPRAMIDE] registered an EC50 in assay [1] of 1.92 µM. This compound yielded a Ki in assay [2] of 0.9 µM.

On to `NCCc1c[nH]c2ccc(O)cc12` [SEROTONIN], for which the concentration for a half-maximal effect (EC50) in assay [1] came to 0.0171 µM. Besides, the inhibitory constant (Ki) was 0.0374 µM in assay [2] and 0.087 µM in assay [3].
